Assay results reported in patent publication US6552167B1, “Polyamide chains of precise length” (Gryphon Therapeutics, Inc., priority 1998, dated 2003).

How the values were obtained:
Conditions in all cases: 4 hours; control incubation, same conditions
[1] = tested on: chymotrypsin; assay: Polyamide stability to protease digestion, HPLC analysis (chymotrypsin)
Description: (§1) The compounds produced in Examples 8 and 9 were separately dissolved at 1 mg/ml in a 1% ammonium bicarbonate solution. In separate tubes, these solutions were treated with trypsin, chymotrypsin and elastase (enzyme:substrate ratio 1:100, 37° C.). Aliquots (20 μl) were withdrawn at intervals and analyzed by HPLC.

[2] = tested on: elastase; assay: Polyamide stability to protease digestion, HPLC analysis (elastase)
Description: as §1

[3] = tested on: trypsin; assay: Polyamide stability to protease digestion, HPLC analysis (trypsin)
Description: as §1

insulin
extensive digestion: digestion by chymotrypsin [1] | digestion by elastase [2] | digestion by trypsin [3]
